This passage reports IC50 results from patent US20190000850A1, “COMBINATION CANCER THERAPY” (The Regents of the University of California, priority 2015, published 2019).

Protein sequences, listed by entry. Tags and fused reporters are not part of them.
UniProt O14757, whole entry: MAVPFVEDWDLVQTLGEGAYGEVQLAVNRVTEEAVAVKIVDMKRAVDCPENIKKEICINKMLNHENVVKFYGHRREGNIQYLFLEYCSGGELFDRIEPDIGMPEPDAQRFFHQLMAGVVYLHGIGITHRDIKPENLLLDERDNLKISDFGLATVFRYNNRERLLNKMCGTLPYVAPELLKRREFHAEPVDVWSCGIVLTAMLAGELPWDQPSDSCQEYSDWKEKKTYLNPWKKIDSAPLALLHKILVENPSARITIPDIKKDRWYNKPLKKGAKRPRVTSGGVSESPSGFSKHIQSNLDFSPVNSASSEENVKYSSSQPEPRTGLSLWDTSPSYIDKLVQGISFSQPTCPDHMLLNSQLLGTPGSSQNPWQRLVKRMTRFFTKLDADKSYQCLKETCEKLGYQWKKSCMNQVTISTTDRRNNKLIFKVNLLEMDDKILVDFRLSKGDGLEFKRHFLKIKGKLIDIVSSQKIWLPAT
UniProt P27707, whole entry: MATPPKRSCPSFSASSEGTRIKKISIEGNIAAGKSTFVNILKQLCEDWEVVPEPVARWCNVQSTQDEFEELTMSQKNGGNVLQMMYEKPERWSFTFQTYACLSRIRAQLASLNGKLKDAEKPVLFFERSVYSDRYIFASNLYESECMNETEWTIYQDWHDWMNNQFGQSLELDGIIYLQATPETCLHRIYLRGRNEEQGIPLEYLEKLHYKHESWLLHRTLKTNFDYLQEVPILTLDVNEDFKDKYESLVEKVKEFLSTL

Broadly, the IC50 is the concentration needed to halve the response being measured.

One data set concerns the target Chk1 (Homo sapiens, UniProt O14757). The note with it: read-out: IC50 against primary target (Chk1); cited from earlier work.
Another data set addresses dCK (Homo sapiens, UniProt P27707). As to the kind of experiment: IC50 (cytotoxicity assay) of dCK inhibitors, Table 2. In kind it is cell-based. The note with it: read-out: IC50 (cytotoxicity assay).

With `Oc1ccc(-c2ccc(-c3cc(Nc4cccc(CNC5CC5)c4)n[nH]3)cc2)c(O)c1`, the IC50 at Chk1 is 125 to 550 nM.
In the case of `Nc1nc(=O)n([C@H]2CC[C@H](NC(=O)c3cc(-c4cc5ccccc5s4)ccn3)C2)cc1F`, the IC50 at dCK came out at 450 nM.
